# ChEMBL document CHEMBL3632521, “A study of ad-proline peptidomimetic inhibitor of melanoma and endothelial cell invasion through activity towards MMP-2 and MMP-9” (Medchemcomm, 2015)
# The chains behind the UniProt entries cited, without tags or fusion partners. Where a name states a change or a piece, a line headed by the entry shows the natural chain unless it says otherwise.
# UniProt P08253: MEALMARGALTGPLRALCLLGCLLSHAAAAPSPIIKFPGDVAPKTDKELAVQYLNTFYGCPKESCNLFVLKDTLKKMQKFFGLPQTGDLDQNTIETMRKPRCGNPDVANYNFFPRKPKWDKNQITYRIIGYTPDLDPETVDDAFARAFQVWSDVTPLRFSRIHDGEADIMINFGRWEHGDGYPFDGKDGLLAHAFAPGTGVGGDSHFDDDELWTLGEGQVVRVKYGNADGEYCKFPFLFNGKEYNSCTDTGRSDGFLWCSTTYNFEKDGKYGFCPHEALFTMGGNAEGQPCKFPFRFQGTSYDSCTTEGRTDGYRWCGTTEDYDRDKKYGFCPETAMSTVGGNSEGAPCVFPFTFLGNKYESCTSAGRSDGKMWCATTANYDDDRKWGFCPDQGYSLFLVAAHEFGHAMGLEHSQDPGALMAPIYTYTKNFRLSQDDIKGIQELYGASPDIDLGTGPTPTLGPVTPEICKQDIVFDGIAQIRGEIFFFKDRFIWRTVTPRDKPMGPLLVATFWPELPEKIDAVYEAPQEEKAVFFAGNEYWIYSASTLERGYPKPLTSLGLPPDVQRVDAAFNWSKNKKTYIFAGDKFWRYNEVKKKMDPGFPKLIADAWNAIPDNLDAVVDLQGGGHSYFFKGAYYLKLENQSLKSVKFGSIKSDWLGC
# Target: 72 kDa type IV collagenase (Homo sapiens, UniProt P08253)
# Test: Inhibition of gelatinolytic activity of pro-MMP2 in human A375P cells assessed as reduction in active form of protein by gelatin zymography
# Format: cell-based
smiles,measurement,value
COc1ccc(C(=O)N[C@@H]2C[C@H](C(=O)NO)N(S(=O)(=O)c3ccc(Cl)c(Cl)c3)C2)c(OC)c1,inhibition,Dose-dependent effect
